In ChEMBL document CHEMBL3272034:

Experiment: Dissociation constant, pKa of the compound

For CN(CCCl)CCCl, which pKa is on record?
Its pKa is 6.45.
